Measured values reported in patent US11918770B2, “Implants for localized drug delivery and methods of use thereof” (The Regents of the University of California, priority 2014, dated 2024).

Protein sequences, listed by entry. Tags and fused reporters are not part of them.
UniProt P03372, whole entry: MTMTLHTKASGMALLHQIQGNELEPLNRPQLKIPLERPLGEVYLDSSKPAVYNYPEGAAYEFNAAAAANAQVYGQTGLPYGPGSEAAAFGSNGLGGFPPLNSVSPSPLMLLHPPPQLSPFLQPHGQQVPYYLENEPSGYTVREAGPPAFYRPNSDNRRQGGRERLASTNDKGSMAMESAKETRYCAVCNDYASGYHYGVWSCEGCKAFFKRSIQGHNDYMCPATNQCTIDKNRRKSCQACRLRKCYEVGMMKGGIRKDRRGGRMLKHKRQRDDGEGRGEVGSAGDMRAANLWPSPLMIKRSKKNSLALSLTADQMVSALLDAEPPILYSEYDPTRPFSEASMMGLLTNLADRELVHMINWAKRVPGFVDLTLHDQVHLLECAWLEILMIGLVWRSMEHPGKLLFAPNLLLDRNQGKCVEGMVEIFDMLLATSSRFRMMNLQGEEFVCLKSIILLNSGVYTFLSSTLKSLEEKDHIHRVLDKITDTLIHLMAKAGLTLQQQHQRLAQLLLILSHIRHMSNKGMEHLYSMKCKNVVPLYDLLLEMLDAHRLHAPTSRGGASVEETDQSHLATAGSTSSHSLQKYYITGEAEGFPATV

Target: estrogen receptor (ER) (Homo sapiens, UniProt P03372)
Experiment: Western blot for ER expression in T47D cells
Type: cell-based
Conditions: fulvestrant released from Silastic tubing

duration of down-regulation of ER expression: > 12 weeks
SMILES: C[C@]12CC[C@@H]3c4ccc(O)cc4C[C@@H](CCCCCCCCC[S+]([O-])CCCC(F)(F)C(F)(F)F)[C@H]3[C@@H]1CC[C@@H]2O (stereo partly shown) [fulvestrant]
